# Assay results reported in patent US5478854A, “Deoxy taxols” (Bristol-Myers Squibb Company, priority 1994, dated 1995).
# Tested on: human colon carcinoma cells HCT-116/VM46
# Experiment: In vitro cytotoxicity (XTT assay), 72 h, HCT-116/VM46 multi-drug resistant cells
# Type: cell-based
# Conditions: for fold resistance relative to HCT116 cells: HCT-116/VM46 vs HCT-116, value in parentheses, 4320 min; for IC50: read-out: IC50, drug concentration required to inhibit cell proliferation to 50% of untreated control, HCT-116/VM46 (teniposide-selected, multi-drug resistant), XTT, 72 h
SMILES,fold resistance relative to HCT116 cells,IC50
"CC(=O)O[C@@]12CO[C@@H]1CC[C@@]1(C)C(=O)CC3=C(C)[C@@H](OC(=O)[C@H](O)[C@@H](NC(=O)OC(C)(C)C)c4ccccc4)C[C@@](O)([C@@H](OC(=O)c4ccccc4)[C@H]21)C3(C)C [Ic, N-Debenzoyl-N-t-butoxycarbonyl-7-deoxy-10-deoxy-10-desacetyloxytaxol]",5.6 fold,67 nM
"CC(=O)O[C@@]12CO[C@@H]1CC[C@@]1(C)C(=O)CC3=C(C)[C@@H](OC(=O)[C@H](O)[C@@H](NC(=O)c4ccccc4)c4ccccc4)C[C@@](O)([C@@H](OC(=O)c4ccccc4)[C@H]21)C3(C)C [Id, 7-Deoxy-10-desacetyloxytaxol]",11 fold,313 nM
